## Measured affinities in a library of Ab-95 light chain variants

Reference: Engelhart et al. 2022, doi:10.1038/s41597-022-01779-4. File: FLAb, binding data.

All variants were tested on one target, the spike HR2 peptide PDVDLGDISGINAS (SARS-CoV-2).

Each scFv is VH, the linker GGGGSGGGGSGGGGS, VL, as in the parent Ab-95, and differs from it in the CDRs of the light chain only.
VH: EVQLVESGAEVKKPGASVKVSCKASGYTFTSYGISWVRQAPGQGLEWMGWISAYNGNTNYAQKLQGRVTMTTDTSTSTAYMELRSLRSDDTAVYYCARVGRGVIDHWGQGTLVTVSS
VL: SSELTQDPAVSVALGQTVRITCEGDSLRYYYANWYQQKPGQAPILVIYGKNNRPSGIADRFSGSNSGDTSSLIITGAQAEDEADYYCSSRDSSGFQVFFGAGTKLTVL

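Library AAYL52 holds single substitutions and randomly drawn double and triple substitutions in the CDRs. The assay is AlphaSeq: two haploid yeast populations carry antibody and antigen on their surface. The frequency of each diploid, read from paired DNA barcodes, reflects how well the two displayed proteins bind. Each replicate has its own calibration line, from reference interactions of the BCL2 family. There are three technical replicates.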

The parent's light chain CDRs are EGDSLRYYYAN, GKNNRPS, SSRDSSGFQVF; each variant's own CDRs replace them letter for letter. Affinities are written as log10 Kd with Kd in nM; a lower number is a better binder. An entry "nd" has no value in the source: the pair was not observed among the diploids in that replicate. This suggests poor binding but is not conclusive. Empty control strains, which show no peptide, gave a signal in 28% of pairings with library AAYL52; the median was 3.91 and 95% of these signals were weaker than 2.90. No background was subtracted. The control count says in how many pairings with the empty strains this scFv gave a signal, with their mean in brackets.

CDR-L1,CDR-L2,CDR-L3,log10 Kd (nM) by replicate,empty controls
EGDSLNYLYAN,GKNTRPS,SSRDSSGFQVF,2.18 2.38 1.87,1/9 (4.98)
EGDSLRYKYAN,GKNRRTS,SSRDSSGFQVF,3.24 2.69 2.75,3/9 (4.06)
EGDLLRYYYAN,GKNNRPS,SSIDSSGFQVC,4.72 nd nd,3/9 (3.63)
EGDSLRYYGAN,GVNCRPS,SSRDSSGFQVF,2.71 3.74 2.47,2/9 (4.30)
EGDSLRYYYAN,GKNNRPI,SKRDSWGFQVF,4.86 nd nd,3/9 (4.36)
EGDSLRYYYAN,GKNNRPS,SSRMSTGFQVF,1.92 1.84 2.47,1/9 (4.70)
EGDSLRYYYAN,GKNNRPS,FSRGSAGFQVF,2.22 2.05 1.66,2/9 (3.37)
EGDSLRYYYAN,GKNSRMS,SSRHSSGFQVF,5.26 2.81 nd,1/9 (4.07)
EGDSLRYYYAN,GKNNRPS,SSRDSSGFQQF,2.39 2.03 1.84,3/9 (3.87)
EGDSERYYYAN,GKNHRPS,SSRDSSGKQVF,3.93 2.71 3.68,5/9 (3.54)
EGDSLRYYYAN,GLMNRPS,SSWDSSGFQVF,nd nd nd,2/9 (3.71)
EGDSLRYYYKN,GKNNRPS,SSRWSSGFQVF,nd nd nd,3/9 (4.22)
EGDSLRYYYAN,GEWNRPS,SSRPSSGFQVF,nd 4.79 nd,4/9 (4.06)
EGDSLRYYYAN,WKNPRPS,SSRDSSRFQVF,3.59 nd 4.28,3/9 (3.71)
EMDSLRYYYAN,GKNNRPS,SSRDSGGDQVF,2.92 nd 3.65,2/9 (3.90)
EGDSLRYYYET,KKNNRPS,SSRDSSGFQVF,4.87 4.63 nd,1/9 (3.80)
EGDSLRYYNAN,GKNNRNS,SSRDSSGFQIF,1.90 2.18 2.04,1/9 (4.28)
EGDSLRYYYAR,GKNNRPS,TSRDSSGFHVF,3.53 nd nd,5/9 (3.92)
PGDSLRYYYAN,SKNNRPS,SSTDSSGFQVF,5.29 nd 4.72,6/9 (4.24)
EGDSKRYYYAN,GKNNRPH,SSRDSVGFQVF,3.20 4.64 nd,3/9 (4.61)
EDDSLRTYYAL,GKNNRPS,SSRDSSGFQVF,3.56 nd nd,1/9 (3.85)
EGDSLRAYYAN,QKVNRPS,SSRDSSGFQVF,4.44 3.50 4.54,4/9 (4.30)
EGDSLGYYYAN,GNKNRPS,SSRDSSGFQVF,2.47 2.08 2.05,2/9 (4.02)
DGDSLRYYYAN,GKNNSWS,SSRDSSGFQVF,3.78 4.29 3.28,3/9 (3.81)
EGDSHRYYYAN,GKNNRPS,SSRDSIGFQVY,4.53 4.35 nd,1/9 (3.99)
EGDSLRYYYAN,GKNCRPL,SSRDSSGFQAF,4.48 nd 4.69,2/9 (4.15)
EGVSLRYYYKN,GKNNRPS,SSRDSSCFQVF,4.72 nd nd,0/9
EFDSLRYYYWN,GKNNRPS,SSRDSSDFQVF,nd nd nd,1/9 (3.28)
EGWSRRYYTAN,GKNNRPS,SSRDSSGFQVF,4.76 nd 3.04,4/9 (4.36)
EGDSAKYYYAN,GKNNRPS,SSRDSSGFQVA,2.76 3.07 2.57,1/9 (3.18)
EGDSLRYYYAN,GKNNDPS,SSRDSGWFQVF,4.06 4.21 nd,1/9 (5.22)
EGDSLRYYYVN,GVNNRTS,SSRDSSGFQVF,4.35 4.00 nd,5/9 (3.77)
EADSLRYYYAN,GKNNRPS,SSRDSSGFQCF,2.97 2.72 2.88,6/9 (4.09)
DGDSLRYYIAN,GKNNRPS,SSRDSSGFQVF,nd nd nd,0/9
EGDSLRYYYAN,GKNNRPS,SSRDIHGPQVF,5.45 3.48 nd,2/9 (4.91)
EGDSWRYYYAN,GKNNLPS,SSRDSSGFQVL,4.37 4.11 nd,6/9 (4.01)
EGDSLRYYYAN,IKHNLPS,SSRDSSGFQVF,4.06 4.78 3.67,2/9 (4.35)

A selection of 2 entries from above:

CDR-L1	CDR-L2	CDR-L3	log10 Kd (nM) by replicate	empty controls
EGDSLRYYYVN	GVNNRTS	SSRDSSGFQVF	4.35 4.00 nd	5/9 (3.77)
EGDSLRYYYAN	IKHNLPS	SSRDSSGFQVF	4.06 4.78 3.67	2/9 (4.35)